Laboratory results: ChEMBL document CHEMBL4145625 (J Med Chem, 2018)

System: NCI-H460
Assay: cells
Type: functional, cell-based
Details: Homo sapiens, NCI-H460, 96 h
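Further: cytotoxicity determined with an MTT assay.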

Question: Which IC50 does the source give for `COc1ncc(-c2cc(OC3CCOCC3)c3nc(N)nc(C)c3c2)cc1NS(=O)(=O)c1ccc(F)cc1F` here?
Answer: The IC50 was 29 nM.
